The values below come from paper PMC11386428.

In experiment [1] the target is T1, tauPRR, the proline rich region of tau, labelled with Alexa Fluor 488 (human (by the printed UniProt entry)). The experiment is described as follows: fluorescence correlation spectroscopy (FCS); ~20 nM fluorescent protein (Alexa 488-labelled tau construct or eGFP) with unlabelled monomer αS up to 150 μM; 20°C; 50 mM Na2HPO4, 50 mM NaCl pH 7.0; single-species diffusion fit, τD normalised to the protein alone.

For experiment [2], the target named is T1, tauPRR, the proline rich region of tau, labelled with Alexa Fluor 488 (human). Briefly: fluorescence correlation spectroscopy (FCS); labelled tauPRR with 60 nM αS seeds in low (5 mM NaCl), standard (50 mM NaCl) and high salt (500 mM NaCl) buffers; two-component diffusion fit.
Experiment [3] shares this target. The experiment is described as follows: fluorescence correlation spectroscopy (FCS); ~20 nM fluorescent protein (Alexa 488-labelled tau construct or eGFP) with unlabelled αS seeds at 20, 60 or 100 nM (monomer units); 20°C; 50 mM Na2HPO4, 50 mM NaCl pH 7.0; two-component diffusion fit, medians of type III curves.

As for “N-terminally acetylated full-length α-synuclein, monomer (from UniProt P37840 1-140) (natural protein)”, the percent increase in τD at 150 μM αS (lower population) in experiment [1] came out at 7%.
With “full-length αS seeds (sonicated fibrils of N-terminally acetylated α-synuclein) (from UniProt P37840 1-140) (complex)”, in experiment [2], the median fB of type III curves, 60 nM αS seeds, 500 mM NaCl is 0.02; the percent of curves fit by a two-component diffusion model, 60 nM αS seeds, 5 mM NaCl was determined as 99%; the percent of curves fit by a two-component diffusion model, 60 nM αS seeds, 50 mM NaCl was determined as 93%; the percent of curves of type I (little evidence of binding), 60 nM αS seeds, 50 mM NaCl was found to be 2%. In addition, in experiment [3], the fB as the discussion prints it, at 60 nM αS seeds stood at 100%; the fB as the discussion prints it, at 100 nM αS seeds came to 100%; the median fB (fraction of tau with τD2) at 20 nM αS seeds came to 0.062; the median fB (fraction of tau with τD2) at 60 nM αS seeds worked out at 0.29. Moreover, in experiment [3], the median fB (fraction of tau with τD2) at 100 nM αS seeds stood at 0.32, the median type III τ (D2app) at 20 nM αS seeds was 3.3 ms and the median type III τ (D2app) at 100 nM αS seeds stood at 4 ms.
